In ChEMBL document CHEMBL3832072 one finds Tmax data, which are given here for 1 compound.

Structures are written as SMILES. Values joined by “and” are separate entries in the source; they are usually repeats but may differ in a detail not shown here. Equal entries are not always repeated. Some compounds may have been tested in ways that are not shown here.

What is called Tmax is the time at which the peak concentration occurs.

The test system of the data set is Homo sapiens. Nature of the data set: Evaluation of pharmacokinetic parameters for Fentanyl following first 72-hour topical application of a Fentanyl transdermal system. Particulars: in vivo, topical_or_ocular.

In the case of `CCC(=O)N(c1ccccc1)C1CCN(CCc2ccccc2)CC1`, the time of peak concentration (Tmax) was 34.8 h and 33.5 h and 36.8 h.
